# Antibody variant affinities, Ab-91 heavy chain, assay 2

Binding partner: SARS-CoV-2 spike HR2 peptide, sequence PDVDLGDISGINAS.

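Library AAYL51 holds single substitutions and randomly drawn double and triple substitutions in the CDRs. Affinity was read by AlphaSeq, a pooled yeast mating assay with surface-displayed partners. Mating (16 h, 30 °C) was followed by selection of diploids and sequencing of their barcodes. A regression on co-assayed BCL2-family reference pairs converts the normalised counts of each replicate to an apparent Kd. The assay was run in three technical replicates.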

Ab-91 is the parent antibody, in scFv form: VL, then a 15-residue (Gly4Ser)3 linker, then VH. The light chain is unchanged in all variants.
VL: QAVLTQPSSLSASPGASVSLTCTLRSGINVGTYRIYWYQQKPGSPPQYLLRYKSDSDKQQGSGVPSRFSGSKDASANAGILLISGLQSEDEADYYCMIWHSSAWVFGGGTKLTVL
VH: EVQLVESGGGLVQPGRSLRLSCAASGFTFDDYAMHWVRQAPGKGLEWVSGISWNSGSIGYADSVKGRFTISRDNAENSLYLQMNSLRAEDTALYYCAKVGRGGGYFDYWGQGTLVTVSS

Positions count from residue 1 of the parent VH; A33S puts S in place of A. This list gathers variants with a substitution at G56 (VH, numbered from residue 1). Numbers give log10(Kd / nM), so 0 is 1 nM and 3 is 1 µM. Smaller is tighter. A mean of the replicates is given; it leaves out those without a signal. "nd" marks a missing value. The strain was present, yet no cells mated with the target were sequenced in any replicate, which points to weak or no binding. Empty control strains, which show no peptide, gave a signal in 21% of pairings with library AAYL51; the median was 4.54 and 95% of these signals were weaker than 3.26. No background was subtracted. The control count says in how many pairings with the empty strains this scFv gave a signal.

Variant A33S G50T G56D showed 3.91 (1 of 3 replicates; controls 0 of 9). Variant G56C V99P G103P gave 4.49 (2 of 3 replicates; controls 2 of 9). With D30A G56S A61H the result was 1.91 (3 of 3 replicates; controls 0 of 9). For G56V A61Y F106S, the assay gave 4.70 (3 of 3 replicates; controls 7 of 9). With G56C G102T the result was 4.59 (2 of 3 replicates; controls 5 of 9).

Variant H35P I51S G56D showed nd (0 of 3 replicates; controls 0 of 9). Variant W53N G56H S57N showed 4.94 (2 of 3 replicates; controls 2 of 9). For G56K G104N, the assay gave 4.79 (1 of 3 replicates; controls 5 of 9). Variant T28N G56W G104D showed 1.21 (3 of 3 replicates; controls 3 of 9). Variant G56Y G59C G102D showed nd (0 of 3 replicates; controls 1 of 9).

With M34Y G56M S57P the result was 4.63 (3 of 3 replicates; controls 4 of 9). For F27C Y32W G56V, the assay gave nd (0 of 3 replicates; controls 0 of 9). For Y32R I51R G56P, the assay gave nd (0 of 3 replicates; controls 1 of 9). For T28Y G56F S57V, the assay gave 4.62 (1 of 3 replicates; controls 2 of 9). For I51K G56T V64G, the assay gave nd (0 of 3 replicates; controls 0 of 9).

With G56L G59T the result was 3.67 (2 of 3 replicates; controls 0 of 9). For H35N G56D Y108F, the assay gave nd (0 of 3 replicates; controls 1 of 9). Variant G56P Y108P gave 4.08 (1 of 3 replicates; controls 2 of 9). For G26P G56E K65Y, the assay gave 4.80 (3 of 3 replicates; controls 6 of 9). Variant G56I V99Y D107C showed 5.71 (2 of 3 replicates; controls 3 of 9).

Variant G50W G56E G103I showed 2.41 (1 of 3 replicates; controls 0 of 9). Variant G56V A61Y showed 3.07 (2 of 3 replicates; controls 1 of 9). With T28A G56D Y60S the result was 2.90 (3 of 3 replicates; controls 3 of 9). For T28M N54Y G56W, the assay gave 2.83 (1 of 3 replicates; controls 0 of 9). Variant G56I S63T D107R showed 5.08 (3 of 3 replicates; controls 5 of 9).

With G56L I58V D107G the result was 0.65 (3 of 3 replicates; controls 1 of 9). For Y32T G56R F106Y, the assay gave nd (0 of 3 replicates; controls 0 of 9). Variant D31L G56T V99E showed nd (0 of 3 replicates; controls 1 of 9). Variant M34K G56W S63N gave nd (0 of 3 replicates; controls 1 of 9). For W53G G56M, the assay gave 3.66 (1 of 3 replicates; controls 2 of 9).

Variant Y32I G56F G102P showed nd (0 of 3 replicates; controls 0 of 9). Variant G56E showed 0.94 (3 of 3 replicates; controls 4 of 9). Variant G56D I58V S63A gave 2.66 (3 of 3 replicates; controls 4 of 9). Variant H35Y W53D G56R showed 5.49 (3 of 3 replicates; controls 7 of 9). Variant S55G G56M G59Q gave nd (0 of 3 replicates; controls 2 of 9).

Variant M34R W53N G56C showed nd (0 of 3 replicates; controls 2 of 9).

A selection of 5 entries from above:

For G56D I58V S63A, the assay gave 2.66 (3 of 3 replicates; controls 4 of 9).
For T28A G56D Y60S, the assay gave 2.90 (3 of 3 replicates; controls 3 of 9).
For A33S G50T G56D, the assay gave 3.91 (1 of 3 replicates; controls 0 of 9).
For G56L I58V D107G, the assay gave 0.65 (3 of 3 replicates; controls 1 of 9).
For H35Y W53D G56R, the assay gave 5.49 (3 of 3 replicates; controls 7 of 9).

In this assay the parent's reference entry averaged 1.86; its copy inside this library read 0.88.

Source: Engelhart et al. 2022 (doi:10.1038/s41597-022-01779-4), MIT Lincoln Laboratory and A-Alpha Bio; data file from the FLAb repository.